Reference: patent US6689742B1, “NY-ESO-1 peptide derivatives, and uses thereof” (Chancellors, Masters and Scholars of the University of …, priority 2000, dated 2004)

What was measured:
Assay type in all cases: cell-based, human
[1] = system: NY-ESO-1 157-165 specific CTLs; test: CTL assays of modified peptides
NY-ESO-1 specific CTLs = test: stimulation of proliferation of NY-ESO-1 specific CTLs from PBLs of melanoma patients; details: 10 nM peptide; larger amounts of native peptide necessary
[2] = system: ESO1 specific CTL clone ESO5; test: recognition by specific CTLs, 51Cr release from peptide-pulsed T2 cells
CTLs = test: 51Cr release assay in presence of reducing agent (DTT or TCEP); details: 200 μM DTT or TCEP

SLLMWITQV [SEQ ID NO: 8]
increase of recognition by NY-ESO-1 157-165 specific CTLs as compared to SEQ ID NO: 2 [1]: about 1000 fold | stimulation of CTLs at low peptide concentration (NY-ESO-1 specific CTLs): stimulated the CTLs | recognition by CTL, in words ([2]; CTL clone ESO5, compared with parental peptide SEQ ID NO: 2): recognized as efficiently as SEQ ID NO: 2 | EC50 ([2]; T2 targets, CTL clone ESO5, lymphocyte:target ratio 30:1, 4 hours, read-out: Peptide ([nM] 50%), concentration giving 50% maximal activity): 1 nM | increase of antigenicity in the presence of reducing agent (CTLs): no increase in antigenicity
